Results taken from article PMC7697615, “Selective Interactions of O-Methylated Flavonoid Natural Products with Human Monoamine Oxidase-A and -B” (Molecules, 2020).

Chains of the proteins cited; added tags and fusions are not shown.
UniProt P21397, whole entry: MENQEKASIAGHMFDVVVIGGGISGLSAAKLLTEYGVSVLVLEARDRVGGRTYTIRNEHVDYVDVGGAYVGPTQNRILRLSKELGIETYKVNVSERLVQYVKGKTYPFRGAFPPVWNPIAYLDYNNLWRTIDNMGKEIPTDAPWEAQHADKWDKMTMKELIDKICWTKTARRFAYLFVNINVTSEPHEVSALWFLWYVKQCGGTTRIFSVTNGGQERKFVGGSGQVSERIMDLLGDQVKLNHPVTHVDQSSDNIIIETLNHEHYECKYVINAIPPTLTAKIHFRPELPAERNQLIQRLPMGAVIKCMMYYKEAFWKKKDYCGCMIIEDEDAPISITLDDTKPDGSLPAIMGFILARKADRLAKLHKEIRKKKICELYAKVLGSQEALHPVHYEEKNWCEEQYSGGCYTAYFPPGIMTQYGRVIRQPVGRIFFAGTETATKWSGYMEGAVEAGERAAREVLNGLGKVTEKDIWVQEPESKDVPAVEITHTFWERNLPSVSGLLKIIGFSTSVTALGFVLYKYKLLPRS

Biological target: MAO-A (Homo sapiens, UniProt P21397)
Experiment: Enzyme kinetics and mechanism study (Lineweaver-Burk), MAO-A
Assay type: biochemical
Set-up: purchased BD Biosciences (Bedford, MA, USA)
Settings: kinetics and dialysis

C#CCN(C)CCCOc1ccc(Cl)cc1Cl [Clorgyline, reference compound]
Type of Inhibition, Monoamine Oxidase-A: Mixed/Irreversible
